For 59 compounds, activation results are on record in PubChem BioAssay AID1910 (Broad Institute, 2009).

The entries are a selection whose mix differs from that of the whole data set. The source made the active and inactive calls.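 How the source made its calls: active means mean activation of at least 10% of the iron chelator positive control signal, with at least half of replicates also reaching 10%; inconclusive means mean and replicate majority disagree about reaching 10%; inactive means mean and most replicates under 10%.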

A short description of the assay: hypoxia response element reporter activation – cell-based, U2OS HRE-luciferase, luminescence, primary screen (AID 1910). The conditions noted are these: active compounds read high, screened at 7.5 µM (by protocol), normalized: DMSO 0%, desferrioxamine 100%.
Consider `CN(C)c1ccc(C(=O)NCC2(N3CCCCC3)CCCCC2)cc1`, for which the activation is inactive: -0.439%.
Under `CCN1CCC(Nc2cccc(F)c2)CC1` stands inactive: -0.0656%.
To `Cc1ccc(C(=O)NCC2(N3CCCCC3)CCCCC2)o1` belongs inactive: 0.19%; to `Fc1ccccc1NC1CCN(Cc2ccccc2)CC1`, inactive: -0.0313%; to `COc1cc(OC)cc(C(=O)NCC2(N3CCCCC3)CCCCC2)c1`, inactive: -0.721%.
Consider `CN1CCC(Nc2ccc(Cl)cc2)CC1`, for which the activation is inactive: 0.0709%.
`CCCOc1ccc(C)cc1CN(CCCl)CCCl`: the activation was inactive: 0.196%.
With `COc1cc(OC)cc(C(=O)NCC2(N3CCOCC3)CCCCC2)c1`, the activation was inactive: -1.36%.
Under `COc1cccc(C(=O)N(c2cc(C)cc(C)c2)C2CCN(C(=O)OC(C)(C)C)CC2)c1` stands inactive: -0.279%.
Under `CCC(CO)(C(=O)OC1CN2CCC1CC2)c1ccccc1` (centres undefined) stands inactive: -0.164%; under `CC(C)(C)OC(=O)N1CCC(Nc2ccccc2)CC1`, inactive: -0.0431%; under `O=C(O)C1(Nc2ccccc2)CCN(Cc2ccccc2)CC1`, inactive: -3.63%.
`CCCOc1ccc(C(=O)NCC2(N(C)C)CCCCC2)cc1`: the activation is inactive: 1.51%.
Turning to `CCOc1ncccc1C(=O)NCC1(N2CCOCC2)CCCCC1`, the activation is inactive: -0.694%.
To `CN1CCC(Nc2ccc(F)c(Cl)c2)CC1` belongs inactive: -1.87%; to `O=C(OC1CN2CCC1CC2)C1c2ccccc2C=Cc2ccccc21` (centres undefined), inactive: 0.403%; to `CCc1cc(C(=O)NCC2(N3CCCCC3)CCCCC2)sc1C`, inactive: -0.562%.
With `CCOC(=O)N1CCC(Nc2ccc(C)cc2)CC1`, the activation is inactive: -2.5%.
Under `N/C(=N\O)c1c(N)no[n+]1[O-]` stands inactive: -0.2%.
To `COc1ccc(C(=O)NCC2(N3CCOCC3)CCCCC2)cc1OC` belongs inactive: -0.123%; to `CN(C)C1(CNC(=O)c2cccc(C#N)c2)CCCCC1`, inactive: -1.98%.
To `c1ccc(CN2CCC(Nc3ccccc3)CC2)cc1` belongs inactive: -1.63%; to `CCCN1CCC(Nc2cc(OC)cc(OC)c2)CC1`, inactive: -3.96%; to `N#Cc1ccc(C(=O)NCC2(N3CCCCC3)CCCCC2)cc1`, inactive: -0.732%.
On to `CC(C)(C)OC(=O)N1CCC(N(C(=O)c2ccccc2)c2ccc(Cl)cc2)CC1`, for which the activation was inactive: 0.0481%.
As to `COc1cc(C(=O)NCC2(N3CCCCC3)CCCCC2)ccc1OC(F)F`, the activation was inactive: 0.555%.
Turning to `O=C(NCC1(N2CCOCC2)CCCCC1)c1cc(=O)[nH]c2ccccc12`, the activation is inactive: -0.161%.
For `CN1CCN(CCOC(=O)C(O)(c2ccccc2)c2ccccc2)CC1`, the activation was inactive: 1.03%.
`COc1ccc(NC2CCN(C(=O)OC(C)(C)C)CC2)cc1`: the activation was inactive: 0.467%.
On to `O=C(NCC1(N2CCCCC2)CCCCC1)c1cccc(C(F)(F)F)c1`, for which the activation was inactive: -0.702%.
On to `CCN1CCC(Nc2ccc(Cl)cc2)CC1`, for which the activation is inactive: -1%.
On to `N#CC1(Nc2ccccc2)CCN(CCc2ccccc2)CC1`, for which the activation was inactive: 0.0182%.
Turning to `O=C(NCC1(N2CCCCC2)CCCCC1)c1cccc([N+](=O)[O-])c1`, the activation was inactive: -1.11%.
Under `O=C(NCC1(N2CCCCC2)CCCCC1)c1ccc(OC(F)F)cc1` stands inactive: 0.358%; under `CCCOc1ccc(C(=O)NCC2(N(C)C)CCCCC2)cc1OC`, inactive: -0.0852%.
On to `CN1CCC(Nc2cccc(F)c2)CC1`, for which the activation is inactive: 0.589%.
To `COc1cc(OC)c(C(=O)NCC2(N(C)C)CCCCC2)cc1OC` belongs inactive: -0.576%.
To `CC(C)c1ccc(NC2CCN(C(=O)OC(C)(C)C)CC2)cc1` belongs inactive: 3.37%; to `COc1ccc(CN(CCCl)CCCl)cc1Cl`, inactive: -0.617%; to `CN(C)c1cccc(C(=O)NCC2(N3CCCCC3)CCCCC2)c1`, inactive: -0.656%.
Under `O=C(OC1CN2CCC1CC2)C1c2ccccc2Oc2ccccc21` (centres undefined) stands inactive: 0.368%; under `N#CC1(Nc2ccccc2)CCN(Cc2ccccc2)CC1`, inactive: -0.00916%.
Regarding `CCOC(=O)N1CCC(Nc2ccc(OC)cc2)CC1`, the activation is inactive: -0.188%.
To `O=C(NCC1(N2CCCCC2)CCCCC1)c1ccc(Cl)nc1` belongs inactive: 0.288%; to `Cc1cc(C)cc(N(C(=O)c2ccccc2)C2CCN(C(=O)OC(C)(C)C)CC2)c1`, inactive: 1.25%; to `O=C(NCC1(N2CCOCC2)CCCCC1)c1cc2ccccc2o1`, inactive: -0.225%.
With `CSc1ccccc1C(=O)NCC1(N2CCCCC2)CCCCC1`, the activation was inactive: -1.37%.
Under `COc1ccc(C(=O)NCC2(N3CCCCC3)CCCCC2)cc1` stands inactive: 0.611%; under `CC(C)(C)OC(=O)N1CCC(N(C(=O)c2ccccc2)c2ccc(F)cc2)CC1`, inactive: 0.0904%; under `COc1ccc(C(=O)NCC2(N3CCCCC3)CCCCC2)c(OC)c1OC`, inactive: 0.0903%.
Regarding `O=C(NCC1(N2CCCCC2)CCCCC1)c1ccc(=O)[nH]c1`, the activation is inactive: -0.543%.
For `O=C(NCC1(N2CCCCC2)CCCCC1)c1cccs1`, the activation is inactive: 0.175%.
Regarding `COc1cc(C(=O)NCC2(N(C)C)CCCCC2)ccc1OC(F)F`, the activation was inactive: -0.238%.
On to `CCOC(=O)N1CCC(Nc2cccc(C)c2)CC1`, for which the activation is inactive: -2.39%.
On to `Cc1ccc(OCC(C)C)c(CN(CCCl)CCCl)c1`, for which the activation is inactive: -0.536%.
On to `O=C(NCC1(N2CCCCC2)CCCCC1)c1ccc(F)cc1`, for which the activation was inactive: 1.22%.
Under `COc1ccc(NC2CCN(CCc3ccccc3)CC2)c(OC)c1` stands inactive: -0.746%.
Under `CCOC(=O)N1CCC(Nc2ccc(F)cc2)CC1` stands inactive: 1.26%.
For the compound `CCOc1ccc(C)cc1CN(CCCl)CCCl`, the activation is inactive: -0.374%.
